Here are results for twelve substances from patent publication US20170334959A1 (priority 2015, published 2017).

The chains behind the UniProt entries cited, without tags or fusion partners. Residues count along the entry.
UniProt Q15858, 1-1977 isoform Q15858-3 W1150R: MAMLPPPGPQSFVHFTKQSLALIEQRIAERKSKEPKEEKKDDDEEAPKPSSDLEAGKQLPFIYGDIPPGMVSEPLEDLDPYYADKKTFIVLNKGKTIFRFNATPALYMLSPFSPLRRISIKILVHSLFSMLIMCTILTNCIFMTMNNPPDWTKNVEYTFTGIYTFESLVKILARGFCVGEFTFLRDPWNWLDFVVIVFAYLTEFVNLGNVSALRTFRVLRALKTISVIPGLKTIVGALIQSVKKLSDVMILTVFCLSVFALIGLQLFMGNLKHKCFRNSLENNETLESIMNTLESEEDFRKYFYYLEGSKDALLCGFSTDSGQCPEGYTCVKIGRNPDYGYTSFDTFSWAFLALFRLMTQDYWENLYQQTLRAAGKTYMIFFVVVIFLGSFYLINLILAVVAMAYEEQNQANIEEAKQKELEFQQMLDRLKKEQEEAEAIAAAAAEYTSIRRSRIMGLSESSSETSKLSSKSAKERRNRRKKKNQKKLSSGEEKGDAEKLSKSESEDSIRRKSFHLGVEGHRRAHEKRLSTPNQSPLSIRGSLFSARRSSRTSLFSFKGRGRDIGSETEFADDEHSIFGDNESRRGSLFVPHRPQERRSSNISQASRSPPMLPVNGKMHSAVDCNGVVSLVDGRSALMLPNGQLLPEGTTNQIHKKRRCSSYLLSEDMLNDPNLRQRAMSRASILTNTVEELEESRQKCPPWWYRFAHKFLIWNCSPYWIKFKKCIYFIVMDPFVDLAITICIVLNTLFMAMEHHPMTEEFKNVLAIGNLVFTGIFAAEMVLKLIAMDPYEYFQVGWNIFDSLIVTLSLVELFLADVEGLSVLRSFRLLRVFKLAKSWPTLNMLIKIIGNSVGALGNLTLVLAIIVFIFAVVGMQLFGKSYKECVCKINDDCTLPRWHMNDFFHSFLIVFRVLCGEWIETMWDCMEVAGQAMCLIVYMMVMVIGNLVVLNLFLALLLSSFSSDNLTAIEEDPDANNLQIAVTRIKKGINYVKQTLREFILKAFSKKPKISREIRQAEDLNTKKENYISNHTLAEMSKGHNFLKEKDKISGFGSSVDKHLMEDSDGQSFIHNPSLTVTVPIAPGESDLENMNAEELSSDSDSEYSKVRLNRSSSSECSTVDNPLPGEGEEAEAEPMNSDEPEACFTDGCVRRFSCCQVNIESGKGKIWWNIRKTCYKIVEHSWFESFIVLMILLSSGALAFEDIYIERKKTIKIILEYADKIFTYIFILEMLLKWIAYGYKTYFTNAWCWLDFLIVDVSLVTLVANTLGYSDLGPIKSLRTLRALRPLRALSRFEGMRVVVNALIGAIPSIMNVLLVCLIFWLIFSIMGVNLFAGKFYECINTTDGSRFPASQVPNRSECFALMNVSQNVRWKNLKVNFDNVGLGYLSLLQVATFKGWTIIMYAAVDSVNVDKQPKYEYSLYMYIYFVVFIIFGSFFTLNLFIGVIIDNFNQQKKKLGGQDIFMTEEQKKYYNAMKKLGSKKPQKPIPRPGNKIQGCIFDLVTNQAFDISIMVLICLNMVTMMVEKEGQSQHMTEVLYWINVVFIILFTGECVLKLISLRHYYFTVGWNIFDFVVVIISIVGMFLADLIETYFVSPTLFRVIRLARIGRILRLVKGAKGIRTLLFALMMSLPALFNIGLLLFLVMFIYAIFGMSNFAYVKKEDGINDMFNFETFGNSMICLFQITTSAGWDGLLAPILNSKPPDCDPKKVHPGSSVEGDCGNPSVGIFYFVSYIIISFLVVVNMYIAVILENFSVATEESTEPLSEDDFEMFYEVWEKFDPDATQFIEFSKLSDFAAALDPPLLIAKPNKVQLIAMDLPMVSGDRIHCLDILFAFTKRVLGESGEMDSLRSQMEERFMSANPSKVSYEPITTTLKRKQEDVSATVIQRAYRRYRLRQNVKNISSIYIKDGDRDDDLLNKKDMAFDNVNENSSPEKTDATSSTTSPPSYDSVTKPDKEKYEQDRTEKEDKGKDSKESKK

Read-outs that look alike come from different tables or passages of the source.

Test [1] deals with T1, human Nav1.7 (Homo sapiens, UniProt Q15858, W1161R). It is filed as cell-based.
The target of test [2] is T1, human Nav1.7. It counts as cell-based. Particulars: read-out: hNav1.7 QPatch IC50.

By IC50 is commonly meant the point on the concentration scale where inhibition reaches its midpoint. On to “GPSCQKWMWTCDAERKCCEGMVCRLWCKKKLW-COOH [NV1D2673]”, for which the IC50 was determined as 4.31 nM in test [1] (read-out: Nav1.7 IC50) and 4.3 ± 0.5 nM in test [1] (read-out: hNav1.7 TETRA IC50).

For “GPSCQKWMWTCDAERKCCEGFVCRLWCKKKLW-COOH [NV1D2738]”, the half-maximal inhibitory concentration (IC50) in test [1] (read-out: hNav1.7 TETRA IC50) amounted to 2.6 ± 0.2 nM.

In the case of “GPACQKWMWTCDAERKCCEGMVCRLWCKKKLW-COOH [NV1D2674]”, the values for the IC50 in test [1] (read-out: Nav1.7 IC50) and in test [1] (read-out: hNav1.7 TETRA IC50) were 4.03 nM and 4 ± 0.2 nM, respectively.

In the case of “GPQCQKWMWTCDAERKCCEGMVCRLWCKKKLW-COOH [NV1D2675]”, the half-maximal inhibitory concentration (IC50) in test [1] (read-out: Nav1.7 IC50) is 4.33 nM; in test [1] (read-out: hNav1.7 TETRA IC50), 4.3 ± 0.3 nM.

Consider “GPQCQDWMQTCDRERKCCKGFVCTLWCRKKLW-COOH [NV1D3430]”, for which, in test [1] (read-out: Nav1.7 IC50), the half-inhibitory concentration (IC50) worked out at 93.9 nM.

In the case of “GPQCQKWMQTCDRERKCCERFVCTLWCRKKLW-COOH [NV1D3390]”, the 50% inhibitory concentration (IC50) in test [1] (read-out: Nav1.7 IC50) was determined as 108 nM.

As for “GPSCQKWMWTCDSERKCCEGFVCRLWCKKKLW-COOH [NV1D2663]”, the IC50 was determined as 4.19 nM in test [1] (read-out: Nav1.7 IC50) and 4.2 ± 0.4 nM in test [1] (read-out: hNav1.7 TETRA IC50).

Turning to “GPRCQKWMQTCDSERKCCEGFVCRLWCKKKLW-COOH [NV1D2733]”, the 50% inhibitory concentration (IC50) in test [1] (read-out: Nav1.7 IC50) was 7.54 nM; in test [1] (read-out: hNav1.7 TETRA IC50), 7.5 ± 2.9 nM.

With “GPQCQKWMQTCDRERKCCEGFVCTLWCRKTLW-COOH [NV1D3409]”, the IC50 in test [1] (read-out: Nav1.7 IC50) turned out to be 79.1 nM.

Take “GPQCQKWMWTCDAERKCCEGFVCRLWCKKKLW-COOH [NV1D2740]”: the 50% inhibitory concentration (IC50) in test [1] (read-out: Nav1.7 IC50) is 3.62 nM; in test [1] (read-out: hNav1.7 TETRA IC50), 3.6 ± 9.9 nM.

Regarding “GPRCQKWMWTCDSERKCCEGFVCRLWCKKKLW-COOH [NV1D2662]”, the IC50 in test [1] (read-out: Nav1.7 IC50) was 4.03 nM; in test [1] (read-out: hNav1.7 TETRA IC50) it was 4 ± 0.4 nM.

Regarding “GPYCQKWMWTCDSERKCCEGMVCRLWCKKKLW-COOH [NV1D12, reference compound]”, the results for the IC50 in test [1] (read-out: hNav1.7 TETRA IC50) and in test [2] were 4.1 ± 3.6 nM and 2.2 ± 1.3 nM, respectively.
